Results as given in PubChem BioAssay AID602250 (The Scripps Research Institute Molecular Screening Center, 2012).
Several values for one entry are separate records, joined by “and”; a condition that tells them apart may be missing. Equal values may be shown once. The list shows a part of the results, in another mix than the full data. Activity calls are given as the source filed them.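 How the source made its calls: active means inhibition above a per-plate cutoff, the plate's mean sample inhibition plus 3 SD (cut at about 24% in these data); inactive means the rest.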

Test: nonselective inhibitors of ATP calcium response in CHO-K1, primary screen, counter-screen for M1 antagonist project, cell-based, Fluo-8 calcium fluorescence, full deck, 1536-well (AID 602250);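 further: 0% = DMSO plus EC80 ATP and 100% = DMSO alone without ATP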
Settings: CHO-K1 parental, ATP-induced calcium, Fluo-8 fluorescence; at 3 µM; hits give high values
In the case of `Nc1ccc(CCCCOc2ccccc2)cc1`, the inhibition is reported as inactive: -7.32%.
With `COc1ccc(C[C@H](C)NC[C@@H](O)c2ccc(O)c(NC=O)c2)cc1` the inhibition was inactive: -2.84%.
For `c1nnnn1CCn1cnnn1`, the inhibition was inactive: -6.64%.
In the case of `CC(C)C(=O)NC(Sc1ccccc1)C(Cl)(Cl)Cl` (centres undefined), the inhibition is reported as inactive: -6.32%.
With `O=P(Nc1nccs1)(c1ccccc1)c1ccccc1` the inhibition was inactive: -12.2%.
With `CC(C)/C=N\N=C(\N)N[N+](=O)[O-]` the inhibition was inactive: -13%.
For `CN(C(=O)Cc1ccc(Cl)c(Cl)c1)[C@@H]1CCCC[C@H]1N1CCCC1`, the inhibition was inactive: 13.6%.
For `CC1(CBr)Cn2c(nc3ccccc3c2=O)S1` (centres undefined), the inhibition was inactive: 17.6%.
For `COc1ccccc1CNC(=O)COC(=O)C(O)(c1ccccc1)c1ccccc1`, the inhibition was inactive: -3.48%.
With `CC(C)(C)C(=O)NC(Sc1ncccn1)C(Cl)(Cl)Cl` (centres undefined) the inhibition was inactive: -2.82%.
With `O=P1(N(CCCl)CCCl)NCCC(C(F)(F)F)O1` (centres undefined) the inhibition was inactive: -3.03%.
With `Clc1n[nH]nc1-c1nn[nH][15n]1` the inhibition was inactive: 17.3%.
For `CCOP(=O)(NC(=NC(C)c1ccccc1)NC(C)c1ccccc1)OCC` (centres undefined), the inhibition was inactive: 9.94%.
In the case of `O=P1(Nc2ccccn2)COc2ccccc2OC1`, the inhibition is reported as inactive: -5.86%.
In the case of `CCC1=CC2Cc3nc4ccc(Cl)cc4c(N)c3C(C1)C2` (centres undefined), the inhibition is reported as inactive: -13.2%.
For `CCOP(=O)(Nc1ccc(C)cn1)OCC`, the inhibition was inactive: -7.55%.
With `CN(CCCl)Cc1cc(Cl)c(NC2=NCCN2)c(Cl)c1` the inhibition was inactive: -7.75%.
In the case of `Nc1cccc([As](=O)(O)c2ccccc2)c1`, the inhibition is reported as inactive: -6.61%.
For `Cc1ccc(OCC(=O)OC2CN3CCC2CC3)cc1` (centres undefined), the inhibition was inactive: -15.9%.
In the case of `O=[As](O)(c1cccs1)c1cccs1`, the inhibition is reported as inactive: 1.79%.
In the case of `O=P1(Nc2ccc(Br)cn2)COc2ccccc2OC1`, the inhibition is reported as inactive: -1.93%.
With `NS(=O)(=O)c1cccc(NC(=O)COC(=O)C(O)(c2ccccc2)c2ccccc2)c1` the inhibition was inactive: -5.39%.
With `Cc1ccc(S(=O)(=O)N(CCCN)CCCc2c(C)nc(N)[nH]c2=O)cc1` the inhibition was inactive: 0.92%.
In the case of `O=P1(Nc2ncccn2)COc2ccccc2OC1`, the inhibition is reported as inactive: -15.8%.
In the case of `CCCC1OP(=O)(Nc2ccccc2)OCC1CC` (centres undefined), the inhibition is reported as inactive: -17.2%.
In the case of `O=C(/C=C/c1ccccc1)OC1CN2CCC1CC2` (centres undefined), the inhibition is reported as inactive: -12.1%.
In the case of `CC1CCC(C(C)C)C(OP(=O)(Nc2ccccn2)c2ccccc2)C1` (centres undefined), the inhibition is reported as inactive: 5.97%.
In the case of `Cc1ccc(C(=O)OC2CN3CCC2CC3)cc1` (centres undefined), the inhibition is reported as inactive: -12.6%.
With `Cc1nn(-c2ccccc2)c2c1P(=O)(N1CCOCC1)N(C)C(c1ccccc1)=N2` (centres undefined) the inhibition was inactive: 4.38%.
For `CN(C(=O)Cc1ccccc1)[C@@H]1CC[C@]2(CCCO2)C[C@H]1N1CCCC1`, the inhibition was inactive: -9.03%.
For `CCOP1(=S)c2c(C)nn(CCC#N)c2N=C(c2ccc(F)cc2)N1C` (centres undefined), the inhibition was inactive: -12%.
For `N#CCCN(C(=O)COC(=O)C(O)(c1ccccc1)c1ccccc1)c1ccc(F)cc1`, the inhibition was inactive: -1.73%.
In the case of `CN(C(=O)Cc1ccc(Cl)c(Cl)c1)[C@H]1CC[C@@]2(CCCO2)C[C@@H]1N1CCCC1`, the inhibition is reported as inactive: -8.38%.
With `O=[N+]([O-])c1ccc2c(c1)nnn2O` the inhibition was inactive: -14.8%.
For `CN(C)C(=O)c1cc([N+](=O)[O-])cc2c1-c1c(cc([N+](=O)[O-])cc1[N+](=O)[O-])C2=O`, the inhibition was inactive: 10.9%.
In the case of `NC(=O)Nc1ccc([As](=O)(O)O)cc1`, the inhibition is reported as inactive: -15.4%.
With `COc1ccc(CC(C)NCC(O)c2ccc(O)c(NC=O)c2)cc1` (centres undefined) the inhibition was inactive: -2.05% and inactive: 6.3%.
In the case of `Nc1ccccc1[As](=O)(O)c1ccccc1`, the inhibition is reported as inactive: -7.76%.
For `O=C(O)COc1ccc([As](=O)(O)O)cc1[N+](=O)[O-]`, the inhibition was inactive: 7.17%.
With `O=P(Nc1nccs1)(Oc1ccccc1)Oc1ccccc1` the inhibition was inactive: 2.93%.
For `O=P(Nc1nccs1)(c1ccccc1)c1nc2ccccc2s1` (centres undefined), the inhibition was inactive: -6.88%.
With `CCOP1(=S)c2c(C)nn(CCC#N)c2N=C(c2ccccc2F)N1C` (centres undefined) the inhibition was inactive: -9.71%.
With `CS(=O)(=O)c1cc([N+](=O)[O-])c2no[n+]([O-])c2c1` the inhibition was inactive: -5.21%.
With `CCOP(=O)(Nc1cccc2ccccc12)OCC` the inhibition was inactive: -10.8%.
In the case of `COc1cc(C2NCCC3(OCCO3)C2(C)C)cc(OC)c1OC` (centres undefined), the inhibition is reported as inactive: -3.12%.
In the case of `Cc1ccc(NCCc2c([N+](=O)[O-])cc([N+](=O)[O-])cc2[N+](=O)[O-])cc1`, the inhibition is reported as inactive: -8.13%.
With `Nc1cccc2c([As](=O)(O)O)cccc12` the inhibition was inactive: -7.91%.
In the case of `C[C@H]1C(=O)O[C@@H]2CCN3CC=C(COC(=O)[C@](C)(O)[C@]1(C)O)[C@H]23`, the inhibition is reported as inactive: -0.43%.
In the case of `CCCOP(=S)(Nc1nc(N)cc(=O)[nH]1)OCCC`, the inhibition is reported as inactive: -11.9%.
With `Cc1cccc(OCC(=O)OC2CN3CCC2CC3)c1` (centres undefined) the inhibition was inactive: -16%.
In the case of `O=[As](O)(c1cccc(O)c1)c1cccc(O)c1`, the inhibition is reported as inactive: -5.08%.
With `O=C(OC1CN2CCC1CC2)c1ccc(Cl)cc1` (centres undefined) the inhibition was inactive: -2.85%.
With `CS(=O)(=O)c1ccc(Cl)c(NC(=O)COC(=O)C(O)(c2ccccc2)c2ccccc2)c1` the inhibition was inactive: 2.08%.
For `O=[As](O)(O)c1cccnc1`, the inhibition was inactive: -11.2%.
In the case of `O=[N+]([O-])c1cc(Oc2ccc([N+](=O)[O-])cc2C(F)(F)F)cc([N+](=O)[O-])c1`, the inhibition is reported as inactive: -3.72%.
For `COc1ccc(N/C(=N/P(=O)(N2CCOCC2)N2CCOCC2)N2CCOCC2)cc1`, the inhibition was inactive: -2.69%.
In the case of `O=P1(N(CCCl)CCCl)OCCCN1CCCl` (centres undefined), the inhibition is reported as inactive: -20.2%.
With `O=P1(N(CCCl)CCCl)Nc2ccccc2N1` the inhibition was inactive: -4.51%.
For `COc1cc(I)ccc1[As](=O)(O)O`, the inhibition was inactive: -7.93%.
For `COc1ccc2nc(NP(=O)(c3ccccc3)c3ccccc3)sc2c1`, the inhibition was inactive: 3.57%.
For `Cc1c2c(nc3ccccc13)SC(C(Cl)Cl)C2` (centres undefined), the inhibition was inactive: 0.81%.
In the case of `Cc1cc(=O)[nH]c(N[N+](=O)[O-])n1`, the inhibition is reported as inactive: 6.51%.
For `O=[N+]([O-])c1cc([N+](=O)[O-])c(-c2ccn[nH]2)s1`, the inhibition was inactive: 4.48%.
In the case of `CC(C)NC(=O)NP(=O)(Oc1ccccc1)Oc1ccccc1`, the inhibition is reported as inactive: -9.6%.
For `CCN(CC)C(=S)SC(NC=O)C(Cl)(Cl)Cl` (centres undefined), the inhibition was inactive: -9.07%.
In the case of `O=C(OC1CN2CCC1CC2)c1cccc2[nH]cnc12` (centres undefined), the inhibition is reported as inactive: 5.08%.
In the case of `ClCCSc1nnc(-c2cccnc2)o1`, the inhibition is reported as inactive: -6.21%.
In the case of `COC(=O)C1(C)COP(=O)(N2CCCCCC2)OC1` (centres undefined), the inhibition is reported as inactive: -19.3%.
In the case of `CC(C)c1ccc(OP(=O)(Nc2ccccn2)Oc2ccccc2F)cc1` (centres undefined), the inhibition is reported as inactive: -5.14%.
For `CC(Cc1ccc(O)cc1)NCC(O)c1cc(O)cc(O)c1` (centres undefined), the inhibition was inactive: -4.63%.
For `[N-]=[N+]=NC1CCCCC1NC(=O)c1cc([N+](=O)[O-])cc([N+](=O)[O-])c1` (centres undefined), the inhibition was inactive: -9.56%.
For `Cc1ccc(OP(=O)(Nc2ccc([N+](=O)[O-])cn2)Oc2ccc(C)cc2)cc1`, the inhibition was inactive: -4.02%.
With `Cc1ccc2nc3c(c(C)c2c1)CC(C(Cl)Cl)S3` (centres undefined) the inhibition was inactive: -10.4%.
In the case of `O=[N+]([O-])c1ccc(-c2cc([N+](=O)[O-])c(O)c([N+](=O)[O-])c2)cc1`, the inhibition is reported as inactive: -4.81%.
In the case of `C[As](=O)(O)c1cccc(C(=O)O)c1`, the inhibition is reported as inactive: 2.57%.
In the case of `O=[As](O)(c1ccc(O)cc1)c1ccccc1O`, the inhibition is reported as inactive: -12.4%.
For `O=P(Nc1ccccn1)(c1cccc2ccccc12)c1cccc2ccccc12`, the inhibition was inactive: 0.12%.
In the case of `Cc1cc(SC(NC=O)C(Cl)(Cl)Cl)ncn1` (centres undefined), the inhibition is reported as inactive: -10.7%.
In the case of `O=[N+]([O-])c1ccc(Nc2ccc(Oc3ccc([N+](=O)[O-])cc3[N+](=O)[O-])cc2)c([N+](=O)[O-])c1`, the inhibition is reported as inactive: -15.2%.
For `CCOC(=O)Nc1cccc([As](=O)(O)O)c1`, the inhibition was inactive: 12.3%.
With `COP(=O)(OC)N1CC1c1ccccc1` (centres undefined) the inhibition was inactive: 20%.
For `Cc1cc(SC(NC(=O)c2ccccc2)C(Cl)(Cl)Cl)nc(C(C)C)n1` (centres undefined), the inhibition was inactive: -6.14%.
With `CCOC(=O)Nc1ccc([As](=O)(O)O)c(O)c1` the inhibition was inactive: -16.4%.
In the case of `O=C(O)C(O)c1ccc(N(CCCl)CCCl)cc1` (centres undefined), the inhibition is reported as inactive: 11.7%.
For `C/C=C1/CC(C)C(C)(O)C(=O)OCC2CCN3CCC(OC1=O)C23` (centres undefined), the inhibition was inactive: -0.9%.
With `CC1CCNP(=O)(N(CCCl)CCCl)O1` (centres undefined) the inhibition was inactive: -5.28%.
In the case of `CCC(C)N(CC(C)C)C(=S)SC(NC(C)=O)C(Cl)(Cl)Cl` (centres undefined), the inhibition is reported as inactive: -6.67%.
For `CSc1ccc(Nc2c([N+](=O)[O-])cc([N+](=O)[O-])cc2[N+](=O)[O-])cc1`, the inhibition was inactive: 10.3%.
In the case of `O=C(OC1CN2CCC1CC2)c1cccc([N+](=O)[O-])c1` (centres undefined), the inhibition is reported as inactive: -7.25%.
For `O=C(O)C(=O)c1ccc(N(CCCl)CCCl)cc1`, the inhibition was inactive: -5.32%.
In the case of `O=C(Nc1ccncc1[N+](=O)[O-])c1ccc([N+](=O)[O-])cc1[N+](=O)[O-]`, the inhibition is reported as inactive: -3.41%.
In the case of `O=C(COc1ccccc1)OC1CN2CCC1CC2` (centres undefined), the inhibition is reported as inactive: -9.45%.
For `COC(=O)C1(C)COP(=O)(N2CCCC2)OC1` (centres undefined), the inhibition was inactive: 2.64%.
For `COP1(=S)c2c(C)nn(CCC#N)c2N=C(c2ccc(F)cc2)N1C` (centres undefined), the inhibition was inactive: -7.26%.
